## Yeast mating assay 2: variants of the scFv Ab-91

From the AlphaSeq antibody data of Engelhart et al. 2022 (doi:10.1038/s41597-022-01779-4), copy in the FLAb collection.

Antigen: PDVDLGDISGINAS, a 14-residue peptide of the SARS-CoV-2 spike HR2 region.

Parent scFv Ab-91: VL joined to VH by the linker GGGGSGGGGSGGGGS. Changes lie in the heavy chain CDRs alone.
VL: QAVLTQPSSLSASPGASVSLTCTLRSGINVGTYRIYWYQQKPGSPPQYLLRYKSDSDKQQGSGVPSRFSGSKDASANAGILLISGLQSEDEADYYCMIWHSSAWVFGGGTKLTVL
VH: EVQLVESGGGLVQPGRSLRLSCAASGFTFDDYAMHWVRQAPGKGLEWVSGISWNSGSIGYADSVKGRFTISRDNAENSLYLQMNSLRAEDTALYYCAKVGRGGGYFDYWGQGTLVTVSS

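The starting antibody came from a phage panning campaign against this peptide. AAYL51 was designed without a model: most single CDR substitutions and a random sample of double and triple ones. AlphaSeq pools MATa yeast showing the antibodies with MATalpha yeast showing the peptide. The frequency of each diploid, read from paired DNA barcodes, reflects how well the two displayed proteins bind. A regression on co-assayed BCL2-family reference pairs converts the normalised counts of each replicate to an apparent Kd. Each pool was mated in three replicate cultures.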

Substitutions are numbered in sequence along the VH above, starting at 1 (not Kabat). Each Kd is an estimate from the mating assay, the geometric mean of the replicates in which the pair was seen; lower is stronger. Where no diploid with the target was found in any replicate, the entry reads "not detected": below detection, most likely a poor binder, though not proof of it. Empty control strains, which show no peptide, gave a signal in 21% of pairings with library AAYL51; the median was 34 µM and 95% of these signals were weaker than 1.8 µM. No background was subtracted. The control count says in how many pairings with the empty strains this scFv gave a signal.

| # | Kd (apparent) | seen in | control signals | changes |
|---|---|---|---|---|
| 1 | 7.3 µM | 1 of 3 | 1 of 9 | S52P+Y60K+G102K |
| 2 | 95 µM | 2 of 3 | 4 of 9 | G26Q+S55I+G104C |
| 3 | not detected | 0 of 3 | 0 of 9 | S52H+N54A+R101Q |
| 4 | 200 µM | 1 of 3 | 2 of 9 | G59M+V64K |
| 5 | 59 µM | 2 of 3 | 3 of 9 | F29Q+D30W+Y105H |
| 6 | 3.0 µM | 3 of 3 | 1 of 9 | W53C+I58L+A61S |
| 7 | 96 µM | 1 of 3 | 0 of 9 | H35C+V99Q+D107T |
| 8 | 6.0 µM | 2 of 3 | 1 of 9 | F29K+N54Q+Y60I |
| 9 | not detected | 0 of 3 | 1 of 9 | Y32T+G103K+F106D |
| 10 | not detected | 0 of 3 | 0 of 9 | D62Y+S63Y+V64T |
| 11 | 22 µM | 2 of 3 | 6 of 9 | G100W+Y108L |
| 12 | 91 µM | 3 of 3 | 4 of 9 | G26K+G100P+D107H |
| 13 | not detected | 0 of 3 | 0 of 9 | H35Q+G59P+G102E |
| 14 | not detected | 0 of 3 | 1 of 9 | N54G+S63Y+G102L |
| 15 | 33 nM | 3 of 3 | 1 of 9 | R101V+Y108N |
| 16 | 520 µM | 1 of 3 | 2 of 9 | F27T+I51D+D107K |
| 17 | 74 µM | 2 of 3 | 6 of 9 | F29M+D30E+M34V |
| 18 | not detected | 0 of 3 | 1 of 9 | G50R+G56P+Y60Q |
| 19 | 28 µM | 1 of 3 | 3 of 9 | D31C+S55W+R101C |
| 20 | not detected | 0 of 3 | 0 of 9 | W53E+G103W+D107G |
| 21 | 95 µM | 2 of 3 | 2 of 9 | D31Y+S52I+Y108V |
| 22 | 300 µM | 2 of 3 | 1 of 9 | G26E+D62W+V64F |
| 23 | 370 µM | 1 of 3 | 4 of 9 | T28Q+G103C+Y108T |
| 24 | not detected | 0 of 3 | 3 of 9 | Y32F+V64R+G100P |
| 25 | 2.9 mM | 1 of 3 | 6 of 9 | H35V+I51Y+N54E |
| 26 | not detected | 0 of 3 | 0 of 9 | F27K+T28D+Y108R |
| 27 | 15 µM | 2 of 3 | 4 of 9 | S52K+S63E+G100S |
| 28 | 2.1 µM | 1 of 3 | 3 of 9 | F27P+Y60V+S63M |
| 29 | not detected | 0 of 3 | 0 of 9 | H35V+Y60I+S63E |
| 30 | 160 µM | 3 of 3 | 7 of 9 | M34Q+D62P+F106N |
| 31 | 390 µM | 3 of 3 | 6 of 9 | T28A+S55D+I58P |
| 32 | 21 nM | 3 of 3 | 1 of 9 | D31M+G56A+Y105N |
| 33 | 5.8 µM | 1 of 3 | 1 of 9 | D31C+G103T+F106S |
| 34 | not detected | 0 of 3 | 0 of 9 | F29R+I58W+R101P |
| 35 | 6.3 µM | 1 of 3 | 0 of 9 | D30I+I51W+Y108W |
| 36 | 43 µM | 2 of 3 | 3 of 9 | N54K+G56M+Y60H |
| 37 | not detected | 0 of 3 | 0 of 9 | H35E+I51K+N54L |
| 38 | not detected | 0 of 3 | 1 of 9 | Y32L+N54M+G103V |
| 39 | 72 µM | 2 of 3 | 6 of 9 | G50N+S52M+K65E |
| 40 | 1.9 µM | 3 of 3 | 3 of 9 | I51V+A61G+V99D |
| 41 | 360 nM | 3 of 3 | 4 of 9 | N54H+G100Y+G103S |
| 42 | 680 nM | 1 of 3 | 0 of 9 | Y32K+V99S+F106T |
| 43 | not detected | 0 of 3 | 0 of 9 | G50Q+N54F+G100L |
| 44 | 42 µM | 1 of 3 | 1 of 9 | D31M+I51H+G104M |
| 45 | not detected | 0 of 3 | 1 of 9 | S57H+D62S |
| 46 | 1.4 µM | 1 of 3 | 2 of 9 | G50H+N54I+V64H |
| 47 | 130 µM | 1 of 3 | 3 of 9 | G50L+I51N+F106P |
| 48 | 37 µM | 1 of 3 | 2 of 9 | F29A+S52K+S57D |
| 49 | not detected | 0 of 3 | 0 of 9 | F27L+G50W+V64D |
| 50 | not detected | 0 of 3 | 2 of 9 | I51Y+W53G+A61L |
| 51 | not detected | 0 of 3 | 3 of 9 | N54I+S63C+G104E |
| 52 | 76 µM | 1 of 3 | 2 of 9 | M34W+R101N+Y108W |
| 53 | 130 µM | 2 of 3 | 6 of 9 | S57T+V64Y+G100D |
| 54 | not detected | 0 of 3 | 2 of 9 | G26L+H35G+Y60E |
| 55 | 2.2 µM | 1 of 3 | 1 of 9 | S52G+V64N |
| 56 | not detected | 0 of 3 | 1 of 9 | D30S+S55T+F106W |
| 57 | not detected | 0 of 3 | 0 of 9 | W53E+R101W+D107A |
| 58 | 32 µM | 2 of 3 | 2 of 9 | D31Y+G56W+Y105E |
| 59 | 380 nM | 3 of 3 | 6 of 9 | D31Q+I51L+A61D |
| 60 | not detected | 0 of 3 | 2 of 9 | Y32L+G103A+Y108V |
| 61 | 110 µM | 1 of 3 | 2 of 9 | M34V+Y60R+G100H |

The first 8 variants above that were never detected:

| changes | Kd (apparent) | seen in | control signals |
|---|---|---|---|
| S52H+N54A+R101Q | not detected | 0 of 3 | 0 of 9 |
| Y32T+G103K+F106D | not detected | 0 of 3 | 1 of 9 |
| D62Y+S63Y+V64T | not detected | 0 of 3 | 0 of 9 |
| H35Q+G59P+G102E | not detected | 0 of 3 | 0 of 9 |
| N54G+S63Y+G102L | not detected | 0 of 3 | 1 of 9 |
| G50R+G56P+Y60Q | not detected | 0 of 3 | 1 of 9 |
| W53E+G103W+D107G | not detected | 0 of 3 | 0 of 9 |
| Y32F+V64R+G100P | not detected | 0 of 3 | 3 of 9 |